Data published in patent US20050227355A1, “Serum-free cell culture media” (priority 1996, published 2005).

Experiments:
[1] = test system: Vero cells; assay: Soluble organic acids as lipid precursors, Vero cells (Example 9); type: cell-based, Monkey; settings: DME/MCDB 110 basal medium
[2] = test system: Hybridoma 1E6; assay: Soluble organic acids as lipid precursors, Hybridoma 1E6 (Example 9); type: cell-based, Mouse
[3] = test system: Vero, CHO-K1 and 1E6 hybridoma cells; assay: Soluble organic acids as lipid precursors, overall conclusion (Example 9); type: cell-based

**Q.** Which results are given for CCCCCC(=O)O [Caproic acid]?
**A.** cell growth results (ranking of acids) [1]: then caproic acid; cell growth results (ranking of acids) [2]: best results; effective / optimum concentration of the most important organic acids [3]: around 0.2 mM
